Assay results reported in patent publication US7375215B2, “Compounds for PDT” (Bioscience Technology Investment Holdings Limited, priority 2000, dated 2008).

Assay: Plasma and tissue photosensitiser concentrations in tumour-bearing mice
Experimental: Adult female Balb/c mice bearing the syngeneic colo26 tumour implanted subcutaneously were produced using methods previously described (Ansell et al. Lasers in Medical Science 1997, 12, 336-41). Groups of mice of weight 19-22 g were given the photosensitisers at a dose of 0.88 μmol kg^−1 (equivalent to 0.6 mg kg^−1 in the case of m-THPC) by injection into the tail vein. The solutions for injection of each compound were prepared at a concentration of 0.352 μmol ml^−1 so that a typical 20 g mouse would be injected with a volume of 50 μl.
Animals were sacrificed at 6, 24, 72 and 192 hours after injection of each photosensitiser. Immediately after sacrifice, blood was obtained by cardiac puncture, and centrifuged at 13,000×g for three minutes. […] The photosensitiser content of each sample was measured from the fluorescence of an extract obtained using methanol:DMSO (3:5, v:v). A 50 μl portion of each extract was transferred to a disposable fluorescence cuvette and the fluorescence determined using an excitation wavelength of 418 nm and emission wavelength of 650 nm with an eight second response setting. […] The measurement protocol was designed to dilute each sample to a sufficient extent to avoid interference by endogenous chromophores (absorbance of samples <<0.1 at the excitation wavelength).
The selectivity for tumour specific tissue distribution was also evaluated in this work. […]

## tetrakis (6′-(methoxy PEG 2000 carbamate)1′-isocyanate hexamethylene) derivative of 7,8dihydro-5,10,15,20-tetrakis(3-hydroxyphenyl)porphyrin [SPC 0172]
72 hours post-administration
  Tumour:muscle ratio, fold higher than that observed with m-THPC: 2-3 fold
Compared with m-THPC
  Excretion from the liver: in a comparable period to m-THPC
